In publication PMC7801566 (Medicinal Chemistry Research, 2021):

Target: T1, Human neutrophil elastase (hNE) (Homo sapiens, UniProt P08246)
T1 sequence (P08246 30-247): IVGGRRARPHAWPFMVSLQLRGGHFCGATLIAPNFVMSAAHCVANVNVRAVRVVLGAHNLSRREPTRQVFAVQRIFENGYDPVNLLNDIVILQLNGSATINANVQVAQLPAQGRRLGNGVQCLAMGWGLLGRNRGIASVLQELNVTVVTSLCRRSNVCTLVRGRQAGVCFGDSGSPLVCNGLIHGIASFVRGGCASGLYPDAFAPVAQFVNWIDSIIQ
Assay: fluorogenic peptide substrate
Assay type: biochemical

- pIC50: 7.48
SMILES: CC(C)(C)C(=O)Oc1ccc(S(=O)(=O)Nc2ccccc2C(=O)NCC(=O)O)cc1 [Sivelestat]

pIC50: −log10 of the molar value.
